From PubChem BioAssay AID1276 (Columbia University Molecular Screening Center, 2008)
This is a selection; strong and weak results do not stand in their true shares. Calls of active or inactive are those of the source.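 The calls were made as follows: active = activation above a set limit, based on mean plus 3 SD of controls (cut at about 140% in these data); inconclusive = one replicate above the limit, the other below; inactive = the rest.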

Test: activators of APP 5'UTR luciferase reporter, primary screen, SH-SY5Y cells (AID 1276)
Details: SH-SY5Y APP 5'UTR luciferase reporter, luminescence; at 2 µM; active compounds read high; zero percent = DMSO vehicle wells
With COc1ccc(NC2CCN(CCc3ccccc3)CC2)c(OC)c1 the activation was inactive: -11.1%. With COc1ccc(C(=O)NCC2(N3CCCCC3)CCCCC2)c(OC)c1OC the activation was inactive: -5.34%. For O=C(NCC1(N2CCOCC2)CCCCC1)c1cc2ccccc2o1, the activation was inactive: -2.48%. In the case of O=C(OC1CN2CCC1CC2)C1c2ccccc2Oc2ccccc21 (stereo not given), the activation is reported as inactive: -3.19%. In the case of CCOC(=O)N1CCC(Nc2ccc(OC)cc2)CC1, the activation is reported as inactive: 3%. In the case of CC(C)c1ccc(NC2CCN(C(=O)OC(C)(C)C)CC2)cc1, the activation is reported as inactive: 58.2%. With CN(C)c1cccc(C(=O)NCC2(N3CCCCC3)CCCCC2)c1 the activation was inactive: -10.6%. In the case of COc1ccc(CN(CCCl)CCCl)cc1Cl, the activation is reported as inactive: 25.7%. With CN1CCC(Nc2cccc(F)c2)CC1 the activation was inactive: 2.61%. With N#CC1(Nc2ccccc2)CCN(CCc2ccccc2)CC1 the activation was inactive: 0.05%. In the case of O=C(NCC1(N2CCCCC2)CCCCC1)c1cccc([N+](=O)[O-])c1, the activation is reported as inactive: 4.07%. In the case of O=C(NCC1(N2CCOCC2)CCCCC1)c1cc(=O)[nH]c2ccccc12, the activation is reported as inactive: 13.2%. With COc1ccc(NC2CCN(C(=O)OC(C)(C)C)CC2)cc1 the activation was inactive: 8.05%. With CN1CCN(CCOC(=O)C(O)(c2ccccc2)c2ccccc2)CC1 the activation was inactive: -20.3%. For N#Cc1ccc(C(=O)NCC2(N3CCCCC3)CCCCC2)cc1, the activation was inactive: -13.9%. With c1ccc(CN2CCC(Nc3ccccc3)CC2)cc1 the activation was inactive: 4.39%. In the case of COc1ccc(C(=O)NCC2(N3CCOCC3)CCCCC2)cc1OC, the activation is reported as inactive: -10.3%. For N/C(=N\O)c1c(N)no[n+]1[O-], the activation was inactive: -5.24%. With O=C(OC1CN2CCC1CC2)C1c2ccccc2C=Cc2ccccc21 (stereo not given) the activation was inactive: -2.35%. With CCOc1ncccc1C(=O)NCC1(N2CCOCC2)CCCCC1 the activation was inactive: -5.33%. In the case of CC(C)(C)OC(=O)N1CCC(Nc2ccccc2)CC1, the activation is reported as inactive: 9.51%. For COc1cc(OC)cc(C(=O)NCC2(N3CCOCC3)CCCCC2)c1, the activation was inactive: -12.5%. In the case of CCC(CO)(C(=O)OC1CN2CCC1CC2)c1ccccc1 (stereo not given), the activation is reported as inactive: 3.64%. In the case of CCN1CCC(Nc2cccc(F)c2)CC1, the activation is reported as inactive: -14.3%. In the case of CN(C)c1ccc(C(=O)NCC2(N3CCCCC3)CCCCC2)cc1, the activation is reported as inactive: -7.46%.
